Measurements published in patent publication EP4678648A1, “SYNTHESIS METHOD OF ANTIBODY-DRUG CONJUGATES USING PROXIMITY EFFECT-BASED SITE-SELECTIVE ANTIBODY LABELING” (Sogang University Research Business Development Foundation, priority 2023, dated 2024).

Target: FcRn (Neonatal Fc Receptor)
Test: SPR (BIAcore T200), FcRn amine-coupled on CM5 chip, antibody 1.96-31.25 nM flowed, pH 6.0 or 7.4 not given, 1:1 fit; Table 4 taken as the FcRn table

Trastuzumab-(VC-PABC-MMAE)2 (antibody) showed a Kd of 0.604 nM.
